Data reported in patent US20150140123A1, “Protein expression analyses for identifying genotoxic compounds” (Merck Patent GmbH, priority 2012, published 2015).

System: HepG2 cells
Details: human
Experimental: HepG2 cells (Order No. HB-8065, Lot. 58483209, ATCC, Manassas, USA) were cultured in DMEM/F12 with L-Glutamine and 15 mM Hepes supplemented with 10% (v/v) FBS, 1% (v/v) penicillin (10 kU/ml)/streptomycin (10 mg/ml) solution, 0.1% (v/v) gentamicin (50 mg/ml), and 1 mM sodium pyruvate at 37° C. and 5% CO2 in culture flasks. Depending on the experiment, an appropriate number of cells were seeded onto plates after detaching of the cells using trypsin and cells were cultured at 37° C. and 5% CO2 for 24 h prior to treatment. All experiments were performed three times with cells of passages 4-20.
Cells were seeded onto black Poly-D-Lysin coated 96-well-plates (BD Biocoat, Franklin Lakes, USA) (0.02×10^6 cells/well) and left 24 h for adherence and then treated with test compounds at a maximum concentration of 1 mM which is recommended by the ICH S2(R1) guideline (EMA, 2011). For each compound, nine concentrations were tested with 2-fold serial dilutions. DMSO 1% (v/v) served as vehicle control for the experiments. The treatment procedure was different for direct-genotoxic and pro-genotoxic compounds. The treatment for direct genotoxic compounds was ongoing and was repeated daily over 48 h. Pro-genotoxic compounds were incubated for 6 h together with metabolic activation system (to limit the cytotoxic effect of the S9-mixture). After this period, cells were washed with cell media followed by 18-repeated daily over 48 h. The metabolic activation system used consisted of the following components and concentrations: 8 mM MgCl2, 32.8 mM KCl, 12 mM NADPH, 124 mM phosphate buffer and 2500 pmol/ml cytochrome P450 (CYP) content in the pre-mixture corresponding to 2.4 mM MgCl2, 9.8 mM KCl, 3.6 mM NADPH, 37.2 mM phosphate buffer, and 750 pmol/ml CYP as final concentrations after dilution 1:3.33 with cell culture media.
After treatment, cells were rinsed with PBS (Gibco Invitrogen, Karlsruhe, Germany), and then stained with 10 μM CellTracker Green 5-Chloromethylfluorescein Diacetate (CMFDA) (Invitrogen, Karlsruhe, Germany) in cell culture media for 30 min. CMFDA is per se non-fluorescent and is hydrolyzed by esterase in viable cells to a fluorescent-dye. The reaction with thiol groups leads to a cell-impermeable fluorescent-dye-adduct. The esterase activity can be used as an indicator for viability of cells (Papadopoulos et al., 1994, J Immunol Methods 177, 101-11). Afterwards, cells were washed with PBS and fixed with 3.7% Formaldehyde (Sigma-Aldrich, Taufkirchen, Germany) in PBS for 20 min. After that, cells were washed with PBS and blocked and permeabilized with 2% donkey serum (Millipore, Schwalbach, Germany) and 0.25% Triton X-100 (Sigma-Aldrich, Taufkirchen, Germany) in PBS for 30 min. Primary antibodies were diluted in Blocking/Permeabilization solution to final concentrations of 4 μg/ml anti-p-Chk1 (Ser345) goat polyclonal antibody IgG (santa cruz, Santa Cruz, USA), 4 μg/ml anti-p-ATM (Ser1981) mouse monoclonal antibody IgG1K (Millipore, Schwalbach, Germany) and added to the cells. After incubation for 16-18 h, cells were washed with 0.05% Tween 20 (Calbiochem, Darmstadt, Germany) in PBS, and the secondary antibody/16 μM Hoechst staining solution Blocking/Permeabilization solution was added. Secondary antibodies were diluted 1:400 (Alexa Fluor 555 donkey anti-goat, Alexa Fluor 647 donkey anti-mouse, Invitrogen, Karlsruhe, Germany). After an incubation of 1 h, followed by two additional washing steps with 0.05% Tween 20, cells were washed with PBS and finally PBS was added and cells were measured.
Image acquisition was performed on the ArrayScan VTI HCS Reader (Cellomics, Pittsburgh, USA) using a 20× objective. To detect enough cells, 50 images starting at the middle of each well were gathered.
• Channel 1: selected cell count per valid field • Channel 2: CMFDA cytoplasm average intensity • Channel 3: p-Chk1 (Ser345) nucleus average intensity • Channel 4: p-ATM (Ser1981) nucleus average intensity

| SMILES | CMFDA +S9 highest conc. <50% cytotox. over control | CMFDA −S9 highest conc. <50% cytotox. over control | SCC +S9 highest conc. <50% cytotox. over control | SCC −S9 highest conc. <50% cytotox. over control |
| --- | --- | --- | --- | --- |
| [H]/N=C(/N)N/C(=N/[H])NCCc1ccccc1 [Phenformin HCl] | 1000 µM | 1000 µM | 1000 µM | 500 µM |
| O=[N+]([O-])c1ccc(O)cc1 [p-Nitrophenol] | 1000 µM | 500 µM | 1000 µM | 500 µM |

Where a name gives a salt, the structure may show the parent alone.
